Source: patent US20100081624A1 (CONSEJO SUPERIOR DE INVESTIGACIONES CIENTFICAS, published 2010)

Molecular target: human CN, expressed in bacteria and purified (CnA in tandem with CnB, GST construct) (human, UniProt Q08209 1-521; P63098 1-170)
Test: cell-based or functional assay

DQYLAVPQHPYQWAK [LxVPc1 peptide (synthetic peptide with the LxVP sequence of NFATc1)]
EC50 of the increase of CN phosphatase activity on pNPP: ~6.5 mM
